IC50 data for one compound are collected here from ChEMBL document CHEMBL1914368, “Imidazo[1,5-a]quinoxalines as irreversible BTK inhibitors for the treatment of rheumatoid arthritis” (Bioorg Med Chem Lett, 2011).

Chains of the proteins cited; added tags and fusions are not shown. Lines headed by an entry give the natural chain unless they say otherwise; changes in a name come on top.
UniProt Q06187: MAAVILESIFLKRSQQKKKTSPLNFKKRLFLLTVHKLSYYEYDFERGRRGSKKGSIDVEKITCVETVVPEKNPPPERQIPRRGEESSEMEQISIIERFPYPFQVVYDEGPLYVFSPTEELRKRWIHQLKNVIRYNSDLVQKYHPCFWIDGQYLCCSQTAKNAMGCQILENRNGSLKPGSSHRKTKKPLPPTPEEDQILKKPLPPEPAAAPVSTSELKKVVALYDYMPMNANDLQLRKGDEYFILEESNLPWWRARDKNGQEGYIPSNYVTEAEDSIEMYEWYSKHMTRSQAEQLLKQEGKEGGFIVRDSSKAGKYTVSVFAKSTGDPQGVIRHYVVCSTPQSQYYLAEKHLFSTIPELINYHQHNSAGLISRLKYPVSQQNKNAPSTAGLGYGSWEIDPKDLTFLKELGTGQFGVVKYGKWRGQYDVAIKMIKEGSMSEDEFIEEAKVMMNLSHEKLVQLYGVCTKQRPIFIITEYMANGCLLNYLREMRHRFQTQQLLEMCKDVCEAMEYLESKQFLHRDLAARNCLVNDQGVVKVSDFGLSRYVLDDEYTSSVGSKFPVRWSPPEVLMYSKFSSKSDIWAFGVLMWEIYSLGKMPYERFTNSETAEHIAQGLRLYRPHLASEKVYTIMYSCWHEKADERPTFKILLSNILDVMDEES

The target of the assay is Tyrosine-protein kinase BTK (Homo sapiens, UniProt Q06187). The assay can be described thus: Inhibition of human full-length BTK expressed in Sf9 cells using FAM-Srctide peptide as substrate after 60 mins by TR-FRET Assay. (TR-FRET usually uses a lanthanide donor and a delayed reading to cut background.)

In general, IC50 refers to the midpoint of a concentration-inhibition curve. A high value points to a need for much substance.

In turn, `Cc1ccccc1Nc1nc2cc(F)c(N(C)C(=O)/C=C/CN(C)C)cc2n2cncc12` had a concentration for half-maximal inhibition (IC50) of 1.93 nM.
